Assay results: patent publication US6541195B2, “Correction of genetic defects using chemical chaperones” (The Regents of the University of California, priority 1996, dated 2003)

By UniProt entry, the sequences of proteins in these tests, tags left out.
UniProt P02340, whole entry A135V: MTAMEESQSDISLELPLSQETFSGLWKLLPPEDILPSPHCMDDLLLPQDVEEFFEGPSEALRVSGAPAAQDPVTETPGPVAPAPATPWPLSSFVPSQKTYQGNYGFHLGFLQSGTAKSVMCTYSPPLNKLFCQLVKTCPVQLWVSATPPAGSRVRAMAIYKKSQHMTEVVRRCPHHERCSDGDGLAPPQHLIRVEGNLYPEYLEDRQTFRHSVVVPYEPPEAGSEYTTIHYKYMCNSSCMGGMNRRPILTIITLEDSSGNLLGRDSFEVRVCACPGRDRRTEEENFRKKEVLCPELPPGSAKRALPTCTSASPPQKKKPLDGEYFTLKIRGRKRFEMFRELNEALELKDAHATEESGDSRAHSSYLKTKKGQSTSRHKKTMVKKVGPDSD

Assays:
[1] = biological target: temperature sensitive (ts) mutant p53 protein (Mus musculus, UniProt P02340, A135V); assay: Intracellular localization of temperature sensitive p53 in A1-5 cells by indirect immunofluorescence; settings: 39.5° C., 2 D; D2O 100%, TMAO 75 mM, glycerol 0.6 M
[2] = system: temperature sensitive mutant of the E1 enzyme (ts20 cells); settings: 1 day 39.5° C., then agent one day at 39.5° C.; 75 mM TMAO, 0.75 M glycerol
[3] = system: temperature sensitive form of pp60^src; format: cell-based, Rous sarcoma virus; settings: 39.5° C.

C[N+](C)(C)[O-] [TMAO, trimethylamine N-oxide]
intracellular distribution of p53 [1]: nuclear locale of p53

[2H]O[2H] [deuterated water]
intracellular distribution of p53 [1]: nuclear locale of p53

OCC(O)CO [glycerol]
intracellular distribution of p53 [1]: nuclear locale of p53
nuclear p53 staining when agent is added to cells already at the nonpermissive temperature [2]: p53 staining no longer was observed
restoration of transformed phenotype / wild type pp60^src activity [3]: morphology very similar to the control cells maintained at 32.5 °C
